Where two headings read alike, the source gives them in different places. Each block holds one substance with its values, some of them ahead of it.
Tests used:
[1] = target: human 20S proteasome (human) (UniProt P60900)
[2] = target: human 20S proteasome (human) (UniProt P60900); remark: listed apart in the source
[3] = target: human 20S proteasome (human) (UniProt P60900); remark: listed apart in the source
[4] = target: human 20S proteasome (human) (UniProt P60900); remark: listed apart in the source
[5] = target: human 20S proteasome (human) (UniProt P60900); remark: listed apart in the source

Amino acid sequences for entries named in this document (tags omitted). A change or cut given only in a name is not applied to a line headed by its entry.
UniProt P60900: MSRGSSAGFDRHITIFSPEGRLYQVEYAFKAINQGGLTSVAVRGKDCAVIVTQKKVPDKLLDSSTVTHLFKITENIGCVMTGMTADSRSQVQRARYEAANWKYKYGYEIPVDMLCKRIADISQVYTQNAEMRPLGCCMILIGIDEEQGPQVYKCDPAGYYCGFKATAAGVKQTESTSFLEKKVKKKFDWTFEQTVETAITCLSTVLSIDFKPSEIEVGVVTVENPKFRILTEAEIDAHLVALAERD

- stimulation of suc-LLVY-amc turnover by h20S, against the WT peptide [1]: 80 % of WT
Substance: hRpt5 peptide with Ala at P6

- EC50 of stimulation of h20S activity [2]: 10 µM
Substance: MBP^YF

- stimulation of suc-LLVY-amc turnover by h20S [1]: 3 fold
Substance: hRpt5 C-terminal peptide ANLQYYA

- EC50 of stimulation of h20S activity [3]: > 600 µM
- stimulation of h20S activity, loss against Opt5^YF [3]: 80 % reduction
Substance: Opt5^Y4 peptide

- EC50 of stimulation of h20S activity [2]: 41.8 µM
Substance: MBP^YY (Opt5 chimera of maltose-binding protein)

- EC50 of stimulation of suc-LLVY-amc hydrolysis by h20S [4]: 35.5 µM
Substance: Opt5 peptide (Ac-NLSYYT)

- EC50 of stimulation of h20S activity [2]: > 400 µM
Substance: MBP^FY

- EC50 of stimulation of h20S activity [3]: > 600 µM
- stimulation of h20S activity, loss against Opt5^YF [3]: 80 % reduction
Substance: Opt5^Y5 peptide

- stimulation of suc-LLVY-amc hydrolysis by h20S, loss against Opt5^YY [5]: 70 % reduction
Substance: Opt5^FY peptide

- stimulation of suc-LLVY-amc turnover by h20S, against the WT peptide [1]: 1.3 fold over WT
Substance: hRpt5 peptide with Ala at P4

- EC50 of stimulation of suc-LLVY-amc hydrolysis by h20S [5]: 17.3 µM
Substance: Opt5^YF peptide
